This note sets out measurements from ChEMBL document CHEMBL1125742 (J Med Chem, 1991).

The chains behind the UniProt entries cited, without tags or fusion partners. Where a name states a change or a piece, a line headed by the entry shows the natural chain unless it says otherwise.
UniProt P41144: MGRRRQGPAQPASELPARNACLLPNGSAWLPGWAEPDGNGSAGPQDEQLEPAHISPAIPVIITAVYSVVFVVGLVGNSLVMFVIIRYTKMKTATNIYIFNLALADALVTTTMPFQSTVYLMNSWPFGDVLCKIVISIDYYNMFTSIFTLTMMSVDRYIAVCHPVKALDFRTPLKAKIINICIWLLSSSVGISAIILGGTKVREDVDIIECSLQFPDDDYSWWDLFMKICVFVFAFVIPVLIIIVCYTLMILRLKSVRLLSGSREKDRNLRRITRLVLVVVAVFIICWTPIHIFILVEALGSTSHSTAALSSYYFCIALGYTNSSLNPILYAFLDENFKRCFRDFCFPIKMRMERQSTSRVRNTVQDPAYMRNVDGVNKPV
UniProt P97266, whole entry, looked up: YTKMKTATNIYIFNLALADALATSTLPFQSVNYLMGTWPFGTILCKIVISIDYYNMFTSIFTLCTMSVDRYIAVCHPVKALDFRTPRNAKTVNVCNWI

Test [1] concerns the target Kappa-type opioid receptor (Cavia porcellus, UniProt P41144). In kind it is tissue-based, Brain.
The target in another test is Mu-type opioid receptor (Cavia porcellus, UniProt P97266). The test is described as follows: Displacement of [3H]DAGO from mu opioid receptors in guinea pig brain (minus cerebellum). In kind it is tissue-based. In general terms: Loss of bound radioactivity is the signal in a displacement assay; it reports binding, not function.
The next test has as its system Mus musculus. As to the kind of experiment: Antinociceptive activity in mouse tail flick test following s.c. administration. In kind it is functional. The essentials:
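Mouse tail flick test, D'Amour and Smith procedure as modified by Ling et al., with compound given subcutaneously. ED50 in mg/kg with 95% confidence limits, derived by Finney probit analysis.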
Background: In hot-plate and tail-flick tests a longer latency is read as antinociception.

The structures appear in SMILES notation. pKi: −log10 of the molar value.

What is called pKi is −log10 of the Ki, conventionally taken in molar units. Higher therefore signals a low Ki. A word on the ED50: it is the dose that gives a 50% effect, or the effect in half of the subjects. High values mean a need for a large dose, low ones an effect at a small dose. Consider `CN(C(=O)Cc1ccc(Cl)c(Cl)c1)C1CCCCC1N1CCCC1` (stereo not drawn), for which the pKi is 9.01 in test [1] and 6.21 on Mu-type opioid receptor. This molecule came in with an ED50 in the test with Mus musculus of 1.9 mg/kg.
